The assay deals with basophils in human whole blood (CD63 expression). Briefly: 384-Well HTBS Whole Blood CD63 Basophil Assay (25% blood). The note with it: comparison table with known compounds, head prints IC50. The format is cell-based. The procedure:
Syk activity was assessed in relation to reduced activation of basophils as measured by the expression of CD63 in a human whole blood basophil cellular assay (25% blood). Basophil activation was measured in human whole blood using the Flow CAST kit (Buhlmann Laboratories AG, Baselstrasse, Switzerland) following the protocol provided by the manufacturer with minor modifications. Fresh human whole blood in heparin was collected and delivered same day (AllCells, Emeryville, Calif.). Whole blood samples were incubated with either DMSO (1% final) or serial diluted compounds in DMSO for 60 minutes at 37° C. Basophils were activated using the anti-FceRI mAb and stained with anti-CD63-FITC and anti-CCR3-PE for 20 minutes at 37° C. (per well: 50 μL of whole blood was mixed with 113 μL of stimulation buffer, 8.5 μL anti-FceRI mAb, 8.5 μL Ab stain CCR3-PE/CD63-FITC). Cells were centrifuged at 1000×g for 18 minutes and 150 μL/well of supernatant removed. […] Degranulation (basophil activation) was detected by CD63 surface expression on CCR3 positive cells. The percent CD63 positive cells within the gated basophil population were determined and normalized to the DMSO (negative control) and control compound (positive control).

In the case of `COc1ccc(Nc2nc(-c3ccc(N)nc3)cn3ccnc23)cc1OC` [6-(6-aminopyridin-3-yl)-N-(3,4-dimethoxyphenyl)imidazo[1,2-a]pyrazin-8-amine, reference compound], the IC50 was determined as 734 nM.

These data come from US10342794B2, “Substituted imidazo[1,2-a]pyrazines as Syk inhibitors” (Gilead Sciences, Inc., priority 2013, dated 2019).
